Assay [1] addresses T1, Phospholipase D1 (Rattus norvegicus, UniProt P70496).
T1 sequence (P70496 whole entry): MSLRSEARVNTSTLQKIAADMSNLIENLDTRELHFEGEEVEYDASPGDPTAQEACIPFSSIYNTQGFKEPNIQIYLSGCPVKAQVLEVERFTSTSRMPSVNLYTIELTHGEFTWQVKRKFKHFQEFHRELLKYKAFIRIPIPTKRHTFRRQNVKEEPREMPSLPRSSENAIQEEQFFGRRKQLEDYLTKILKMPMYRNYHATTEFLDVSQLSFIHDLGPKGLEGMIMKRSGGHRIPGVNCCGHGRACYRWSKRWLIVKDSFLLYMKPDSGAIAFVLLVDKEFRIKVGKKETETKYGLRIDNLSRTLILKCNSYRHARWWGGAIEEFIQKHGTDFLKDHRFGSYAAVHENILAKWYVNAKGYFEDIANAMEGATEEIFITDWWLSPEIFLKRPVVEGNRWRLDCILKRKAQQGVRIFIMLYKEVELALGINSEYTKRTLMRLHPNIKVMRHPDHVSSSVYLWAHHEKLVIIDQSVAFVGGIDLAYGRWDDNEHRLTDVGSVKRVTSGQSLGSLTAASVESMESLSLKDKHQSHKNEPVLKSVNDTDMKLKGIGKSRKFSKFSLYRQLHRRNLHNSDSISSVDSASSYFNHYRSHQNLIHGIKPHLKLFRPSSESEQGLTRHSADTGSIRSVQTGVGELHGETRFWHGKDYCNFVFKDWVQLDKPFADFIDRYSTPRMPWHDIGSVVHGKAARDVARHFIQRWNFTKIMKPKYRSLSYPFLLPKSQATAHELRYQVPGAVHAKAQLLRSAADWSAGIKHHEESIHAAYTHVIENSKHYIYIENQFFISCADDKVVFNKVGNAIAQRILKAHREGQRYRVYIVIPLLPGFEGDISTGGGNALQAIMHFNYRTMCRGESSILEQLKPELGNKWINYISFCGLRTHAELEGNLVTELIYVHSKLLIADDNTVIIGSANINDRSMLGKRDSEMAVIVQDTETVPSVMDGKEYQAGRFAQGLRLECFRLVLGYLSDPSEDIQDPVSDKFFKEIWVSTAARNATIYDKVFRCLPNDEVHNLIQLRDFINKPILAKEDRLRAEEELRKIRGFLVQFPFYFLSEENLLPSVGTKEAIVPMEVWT
The assay is described as follows: Inhibition of N-terminally truncated rat PLD1 assessed as release of methyl-[3H]choline from choline-methyl-[3H]dipalmitoylphosphatidylcholine after 30 mins by exogenous substrate assay.

Protein sequences, listed by entry. Tags and fused reporters are not part of them. Lines headed by an entry give the natural chain unless they say otherwise; changes in a name come on top.
UniProt O14939: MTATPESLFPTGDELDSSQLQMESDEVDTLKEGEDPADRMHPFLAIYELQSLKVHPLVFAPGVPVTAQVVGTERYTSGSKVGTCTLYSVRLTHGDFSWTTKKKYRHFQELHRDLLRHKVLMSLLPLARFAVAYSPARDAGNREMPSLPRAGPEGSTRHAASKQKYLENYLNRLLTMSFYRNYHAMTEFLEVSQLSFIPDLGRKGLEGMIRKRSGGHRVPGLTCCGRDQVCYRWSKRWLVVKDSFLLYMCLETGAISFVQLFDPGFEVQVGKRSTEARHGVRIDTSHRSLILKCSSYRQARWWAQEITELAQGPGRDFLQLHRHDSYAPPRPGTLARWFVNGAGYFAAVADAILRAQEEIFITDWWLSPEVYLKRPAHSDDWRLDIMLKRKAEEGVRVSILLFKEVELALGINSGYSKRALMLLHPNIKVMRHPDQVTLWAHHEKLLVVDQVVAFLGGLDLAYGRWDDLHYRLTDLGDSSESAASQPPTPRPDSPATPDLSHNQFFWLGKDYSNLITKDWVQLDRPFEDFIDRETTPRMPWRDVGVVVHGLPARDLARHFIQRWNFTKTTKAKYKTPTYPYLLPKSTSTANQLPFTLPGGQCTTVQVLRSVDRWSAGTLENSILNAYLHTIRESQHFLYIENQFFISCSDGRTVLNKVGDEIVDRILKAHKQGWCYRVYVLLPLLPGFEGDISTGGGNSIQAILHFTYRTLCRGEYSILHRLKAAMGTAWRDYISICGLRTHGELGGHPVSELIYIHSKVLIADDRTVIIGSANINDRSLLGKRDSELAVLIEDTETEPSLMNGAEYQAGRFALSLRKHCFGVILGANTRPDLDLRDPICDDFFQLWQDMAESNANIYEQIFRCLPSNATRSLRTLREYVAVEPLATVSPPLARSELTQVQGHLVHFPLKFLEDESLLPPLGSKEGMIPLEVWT

Assay [2] has as its target Phospholipase D2 (Homo sapiens, UniProt O14939). Nature of the assay: Inhibition of human PLD2 assessed as release of methyl-[3H]choline from choline-methyl-[3H]dipalmitoylphosphatidylcholine after 30 mins by exogenous substrate assay.

Broadly, the IC50 is the concentration at which inhibition is half-maximal.

For `C=Cc1ccc(C(=O)NCCN2CCC(n3c(=O)[nH]c4ccccc43)CC2)cc1`, the IC50 in assay [1] and in assay [2] was 1900 nM in each case.
